This passage reports IC50 results from ChEMBL document CHEMBL1147598, “1-(2-Naphthyl)-1H-pyrazole-5-carboxylamides as potent factor Xa inhibitors. Part 3: Design, synthesis and SAR of orally bioavailable benzamidine-P4 inhibitors” (Bioorg Med Chem Lett, 2004).

Amino acid sequences for entries named in this document (tags omitted).
UniProt P00750, whole entry: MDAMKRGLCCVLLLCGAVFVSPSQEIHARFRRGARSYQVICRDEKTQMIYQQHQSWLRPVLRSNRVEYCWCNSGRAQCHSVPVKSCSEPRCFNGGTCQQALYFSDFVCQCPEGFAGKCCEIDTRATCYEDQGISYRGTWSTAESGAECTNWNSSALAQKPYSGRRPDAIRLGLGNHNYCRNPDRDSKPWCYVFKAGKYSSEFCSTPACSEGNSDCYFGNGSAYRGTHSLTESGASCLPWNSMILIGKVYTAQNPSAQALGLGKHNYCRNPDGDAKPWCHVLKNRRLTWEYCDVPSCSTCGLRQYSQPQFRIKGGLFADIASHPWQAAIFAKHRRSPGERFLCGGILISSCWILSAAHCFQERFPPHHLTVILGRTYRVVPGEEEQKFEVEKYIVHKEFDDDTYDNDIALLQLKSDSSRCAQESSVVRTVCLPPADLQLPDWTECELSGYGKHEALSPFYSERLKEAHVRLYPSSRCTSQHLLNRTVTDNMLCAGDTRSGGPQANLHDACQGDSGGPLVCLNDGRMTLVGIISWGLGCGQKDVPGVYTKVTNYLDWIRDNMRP

For test [1], the target named is Plasminogen (Homo sapiens) (UniProt P00747). In words: Inhibitory activity of compound against plasmin.
Test [2] addresses Tissue-type plasminogen activator (Homo sapiens, UniProt P00750). In words: Inhibitory activity of compound against tissue type plasminogen activator.

With `Cc1cc(C(=O)Nc2ccc(C3=NCCN3C)cc2F)n(-c2cc3ccccc3cc2F)n1`, the IC50 in test [1] and in test [2] was greater than 10 µM each time.
